Source: US12552765B2, “Small molecule modulators of pantothenate kinases” (ST. JUDE CHILDREN'S RESEARCH HOSPITAL, INC., priority 2016, dated 2026)

By UniProt entry, the sequences of proteins in these tests, tags left out. Where a name states a change or a piece, a line headed by the entry shows the natural chain unless it says otherwise.
UniProt Q9H999: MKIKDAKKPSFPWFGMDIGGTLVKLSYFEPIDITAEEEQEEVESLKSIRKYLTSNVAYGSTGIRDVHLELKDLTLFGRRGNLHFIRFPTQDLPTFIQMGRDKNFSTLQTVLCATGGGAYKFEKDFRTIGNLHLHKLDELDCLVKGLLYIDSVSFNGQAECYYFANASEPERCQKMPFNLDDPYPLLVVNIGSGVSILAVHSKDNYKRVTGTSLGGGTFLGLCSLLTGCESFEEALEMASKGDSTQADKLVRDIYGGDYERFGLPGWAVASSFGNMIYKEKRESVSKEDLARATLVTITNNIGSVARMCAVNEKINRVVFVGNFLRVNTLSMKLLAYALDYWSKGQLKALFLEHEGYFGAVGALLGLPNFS

The compounds below were run against hPanK3 (Homo sapiens, UniProt Q9H999) (assay: Inhibition of PanK kinase activity (phosphorylation of pantothenate, purified protein)). Details: not given.
Assay type: biochemical

Ki [nM] | Structure (SMILES)
11 | CC(C)c1ccc(CC(=O)N2CCN(c3cnc(C#N)nc3)CC2)cc1 [Compound 52]
43 | CC(C)(C)c1ccc(CC(=O)N2CCN(c3ccc(C#N)cn3)CC2)cc1 [Compound 34]
3.6 | CC(C)c1ccc(CC(=O)N2CCN(c3ccc(C#N)cn3)CC2)cc1 [Compound 31]
15 | CC(C)c1ccc(NC(=O)N2CCN(c3ccc([N+](=O)[O-])cn3)CC2)cc1 [Compound 40]
0.7 | CC(C)c1ccc(NC(=O)N2CCN(c3ccc(Cl)nn3)CC2)cc1 [Compound 56]
4 | CC(C)c1ccc(NC(=O)N2CCN(c3ccc(C#N)nn3)CC2)cc1 [Compound 54]
10.7 | CC(C)c1ccc(OC(=O)N2CCN(c3ccc(C#N)nn3)CC2)cc1 [Compound 59]
1.8 | CC(C)c1ccc(CC(=O)N2CCN(c3cnc(Cl)cn3)CC2)cc1 [Compound 117]
74 | CC(C)c1ccc(NC(=O)N2CCN(c3cnc(C#N)cn3)CC2)cc1 [Compound 53]

Same assay, conditions: Michaelis Menten % Activity = 100/(1 + (X/IC50))

IC50 [nM] | Structure (SMILES)
122 | CC(C)c1ccc(CC(=O)N2CCN(c3ccc(C#N)cn3)CC2)cc1 [Compound 31]
